The results in this text go back to article PMC7008171 (Frontiers in Pharmacology, 2020).

Marks after values point to notes of the source that are not given here.

The data set can be described thus: Pharmacokinetic study in Beagle dogs (i.v., i.g., supralingual, sublingual; crossover, single dose).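 Note: Single-dose crossover across four periods with one-week washout, plasma drug levels quantified by LC-MS/MS in positive ESI mode, lower quantification limit 0.2 ng/mL.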 Particulars: three-compartmental fit of i.v. profile in Beagle dogs.

Turning to `Cc1nc2n(c(=O)c1CCN1CCC(c3noc4cc(F)ccc34)CC1)CCCC2` [risperidone], the “t1/2 (elimination half-life)” value is reported as 2.43 ^e h.
